Target: Type 1 fimbrin D-mannose specific adhesin (Escherichia coli K-12) (UniProt P08191)
Experiment: Binding affinity to Escherichia coli FimH assessed as decrease in RNaseB binding after 1 hr by competitive ELISA
Method in brief: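 Wells coated with RNaseB in bicarbonate buffer pH 9.6, overnight at 4 °C. Blocked with 3% BSA in PBST, 2 h at 37 °C. Inhibitors in PBST plus FimH at 0.07 μM, 1 h at room temperature. Detection used rabbit anti-FimH (1:2500, 1 h), then HRP anti-rabbit (1:5000, 1 h), then TMB for 2–5 min in the dark, stopped with 1N H₂SO₄. Absorbance read at 450 nm.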

Chains of the proteins cited; added tags and fusions are not shown.
UniProt P08191, whole entry: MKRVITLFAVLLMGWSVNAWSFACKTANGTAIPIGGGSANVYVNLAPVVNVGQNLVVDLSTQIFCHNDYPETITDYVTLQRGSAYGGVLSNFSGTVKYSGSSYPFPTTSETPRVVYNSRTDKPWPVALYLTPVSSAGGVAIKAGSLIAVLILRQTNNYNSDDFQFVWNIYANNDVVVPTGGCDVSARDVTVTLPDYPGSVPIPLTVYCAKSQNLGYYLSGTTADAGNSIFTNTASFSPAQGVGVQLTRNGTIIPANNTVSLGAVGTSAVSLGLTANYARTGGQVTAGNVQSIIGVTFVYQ

Q: CCCCCCCO[C@H]1O[C@H](CO)[C@@H](O)[C@H](O)[C@@H]1O was tested. Which Activity did it give?
A: Dose-dependent effect
